Among the data in US6451814B1, “Heterocyclic β-3 adrenergic receptor agonists” (Wyeth, priority 2000, dated 2002) are EC50 values, retold here.

By UniProt entry, the sequences of proteins in these tests, tags left out. Where a name states a change or a piece, a line headed by the entry shows the natural chain unless it says otherwise.
UniProt P13945: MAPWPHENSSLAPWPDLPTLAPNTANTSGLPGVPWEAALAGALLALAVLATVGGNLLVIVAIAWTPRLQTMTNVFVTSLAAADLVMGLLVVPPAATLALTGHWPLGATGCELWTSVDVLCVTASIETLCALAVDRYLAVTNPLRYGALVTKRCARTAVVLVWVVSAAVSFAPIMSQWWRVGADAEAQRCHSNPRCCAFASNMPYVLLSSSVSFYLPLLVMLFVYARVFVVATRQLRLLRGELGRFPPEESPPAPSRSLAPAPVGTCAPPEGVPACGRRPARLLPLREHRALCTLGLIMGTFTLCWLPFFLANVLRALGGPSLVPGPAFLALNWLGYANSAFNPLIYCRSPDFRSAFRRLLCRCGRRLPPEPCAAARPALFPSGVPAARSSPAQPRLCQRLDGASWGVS

The structures appear in SMILES notation.

In this test the target is T1, human β3-adrenergic receptor (Homo sapiens, UniProt P13945).
T1 construct: Full length β3 AR clones (402 amino acids) containing the last 6 amino acids of hβ3—AR are prepared; expressed in transfected cells; host or cells: CHO cells
Nature of the test: cAMP response (SPA kit) in CHO cells transfected with human β3 adrenergic receptor. The test is classed as cell-based. The note with it: CHO cells expressing human β3-AR; 10^-9 M to 10^-5 M; 30 min at 37° C.; cAMP by SPA.
Turning to `CCCCCCCCNC(=O)N1CCC(Nc2ccc(CCNC[C@H](O)c3cccc(Cl)c3)cc2)CC1` [Example 36, 4-(4-{2-[(2R)-2-(3-Chloro-phenyl)-2-hydroxy-ethylamino]-ethyl}-phenylamino)-piperidine-1-carboxylic Acid Octylamide], the EC50 (commonly the concentration needed to bring the measured effect to its halfway point) worked out at 1020 nM.

As to `NC(=O)N1CCC(Nc2ccc(CCNC[C@H](O)COc3ccc(O)cc3)cc2)CC1` [Example 18, 4-(4-{2-[(2S)-2-Hydroxy-3-(4-hydroxy-phenoxy)-propylamino]-ethyl}-phenylamino)-piperidine-1-carboxylic Acid Amide], it took 30 nM to reach a half-maximal effect (EC50). Next, `O=C(NCc1ccc(F)cc1F)N1CCC(Nc2ccc(CCNC[C@H](O)COc3ccc(O)cc3)cc2)CC1` [Example 80, 4-(4-{2-[(2S)-2-Hydroxy-3-(4-hydroxy-phenoxy)-propylamino]-ethyl}-phenylamino)-piperidine-1-carboxylic acid 2,4-difluoro-benzylamide]: 30 nM. The result for `CCCCCCCCNC(=O)N1CCC(Nc2ccc(CCNC[C@H](O)COc3ccc(O)c4c3CCC(=O)N4)cc2)CC1` [Example 69, 4-(4-{2-[(2S)-2-Hydroxy-3-(8-hydroxy-2-oxo-1,2,3,4-tetrahydro-quinolin-5-yloxy)-propylamino]-ethyl}-phenylamino)-piperidine-1-carboxylicacid Octylamide] reads 66 nM; that for `O=C(NCc1cc(F)ccc1F)N1CCC(Nc2ccc(CCNC[C@H](O)COc3ccc(O)cc3)cc2)CC1` [Example 37, 4-(4-{2-[(2S)-2-Hydroxy-3-(4-hydroxy-phenoxy)-propylamino]-ethyl}-phenylamino)-piperidine-1-carboxylic Acid 2,5-difluoro-benzylamide], 23 nM. The result for `CCCCCCCCNC(=O)N1CCC(Nc2ccc(CCNC[C@H](O)COc3ccc(N)nc3)cc2)CC1` [Example 5, 4-(4-{2-[(2S)-3-(6-Amino-pyridin-3-yloxy)-2-hydroxy-propylamino]-ethyl}-phenylamino)-piperidine-1-carboxylic Acid Octylamide] reads 290 nM; that for `O=C(NCc1ccc(Cl)cc1Cl)N1CCC(Nc2ccc(CCNC[C@H](O)COc3ccc(O)cc3)cc2)CC1` [Example 20, 4-(4-{2-[(2S)-2-Hydroxy-3-(4-hydroxy-phenoxy)-propylamino]-ethyl}-phenylamino)-piperidine-1-carboxylic Acid 2,4-dichloro-benzylamide], 250 nM. On to `CS(=O)(=O)Nc1cc(OC[C@@H](O)CNCCc2ccc(NC3CCN(C(=O)NCc4cc(F)ccc4F)CC3)cc2)ccc1O` [Example 50, 4-(4-{2-[(2S)-2-Hydroxy-3-(4-hydroxy-3-methanesulfonylamino-phenoxy)-propylamino]-ethyl}-phenylamino)-piperidine-1-carboxylic Acid 2,5-difluoro-benzylamide], for which the response was half-maximal at 1 nM (EC50).

In turn, `O=C(NCc1ccccc1F)N1CCC(Nc2ccc(CCNC[C@H](O)COc3ccc(O)cc3)cc2)CC1` [Example 26, 4-(4-{2-[(2S)-2-Hydroxy-3-(4-hydroxy-phenoxy)-propylamino]-ethyl}-phenylamino)-piperidine-1-carboxylic Acid 2-fluoro-benzylamide] registered an EC50 of 37 nM.

`O=C(NCc1c(F)cccc1F)N1CCC(Nc2ccc(CCNC[C@H](O)COc3ccc(O)cc3)cc2)CC1` [Example 32, 4-(4-{2-[(2S)-2-Hydroxy-3-(4-hydroxy-phenoxy)-propylamino]-ethyl}-phenylamino)-piperidine-1-carboxylic Acid 2,6-difluoro-benzylamide] had a concentration giving a half-maximal response (EC50) of 32 nM. The result for `CS(=O)(=O)Nc1cc([C@@H](O)CNCCc2ccc(NC3CCN(C(=O)NCc4cc(F)ccc4F)CC3)cc2)ccc1O` [Example 76, 4-(4-{2-[(2R)-2-Hydroxy-2-(4-hydroxY-3-methanesulfonylamino-phenyl)-ethylamino]-ethyl}-phenylamino)-piperidine-1-carboxylic Acid 2,5-difluoro-benzylamide] reads 5 nM. Next, `CNC(=O)N1CCC(Nc2ccc(CCNC[C@H](O)COc3ccc(O)cc3)cc2)CC1` [Example 9, 4-(4-{2-[(2S)-2-Hydroxy-3-(4-hydroxy-phenoxy)-propylamino]-ethyl}-phenylamino)-piperidine-1-carboxylic Acid Methylamide]: 47 nM.
